Assay results published in US8871934B2, “Fluorene compound and pharmaceutical use thereof” (Japan Tobacco Inc., priority 2008, dated 2014).
pIC50: −log10 of the molar value. Like-named read-outs stand apart in the source and are kept apart here.

Target: human PDHK2 (hPDHK2) (Homo sapiens (Human), UniProt Q15119)
Assay: Inhibitory action of PDHK activity in vitro (kinase reaction, residual PDH activity measured)
Format: biochemical
Experimental: In the case of human PDHK2 (hPDHK2, Genbank Accession No. NM_002611), modified hPDHK2 cDNA wherein FLAG-Tag sequence is added to the N terminal by a polymerase linkage reaction was prepared based on hPDHK2 cDNA clone (pReceiver-M01/PDK2-GeneCopoeia), and cloned into a vector (pET17b-Novagen). The recombinant construct was transformed into Escherichia coli (DH5α-TOYOBO). The recombinant clones were identified, plasmid DNA was isolated and subjected to the DNA sequence analysis. One clone which had the expected nucleic acid sequence was selected for expression work.
During the assay, the hPDHK2 enzyme concentration was set to the minimal concentration at which PDH is inhibited the most.
0.05 U/mL PDH (porcine heart PDH complex, Sigma P7032) and 1.6 μg/mL hPDHK2 were mixed in a buffer (50 mmol/L 3-morpholinopropanesulfonic acid (pH 7.0), 20 mmol/L dipotassium hydrogen phosphate, 60 mmol/L potassium chloride, 2 mmol/L magnesium chloride, 0.4 mmol/L EDTA, and 0.2% Pluronic F-68, 2 mmol/L dithiothreitol), the mixture was incubated at 4° C. overnight to give PDH/hPDHK2 complex. The test compound was diluted with dimethyl sulfoxide (DMSO). […] The mixture was incubated at room temperature for 90 min, and the residual PDH activity was measured. The absorbance at 340 nm before and after PDH reaction was measured on a microplate reader to detect NADH produced by the PDH reaction. […]

CN(C)C(=O)Oc1ccc2c(c1)C(O)(C(F)(F)F)c1ccccc1-2 (centres unmarked) [compound 237]
pIC50 (PDHK inhibitory activity, class symbol of IC50): < 6.00 | pIC50 (read-out: PDHK inhibitory activity IC50): 5.70
